Measurements taken from US20130089912A1, “METHODS AND COMPOSITIONS FOR THE STABILIZATION OF BIOLOGIC MATERIAL” (priority 2011, published 2013).

Conditions: choline salt of the named anion

Substance	Log Pow
choline formate	−1.53
choline tartarate	03.04
